Measured values reported in BindingDB's records for doi:10.1016/0024-3205(76)90375-1 (1976).

By UniProt entry, the sequences of proteins in these tests, tags left out.
UniProt P32305, whole entry: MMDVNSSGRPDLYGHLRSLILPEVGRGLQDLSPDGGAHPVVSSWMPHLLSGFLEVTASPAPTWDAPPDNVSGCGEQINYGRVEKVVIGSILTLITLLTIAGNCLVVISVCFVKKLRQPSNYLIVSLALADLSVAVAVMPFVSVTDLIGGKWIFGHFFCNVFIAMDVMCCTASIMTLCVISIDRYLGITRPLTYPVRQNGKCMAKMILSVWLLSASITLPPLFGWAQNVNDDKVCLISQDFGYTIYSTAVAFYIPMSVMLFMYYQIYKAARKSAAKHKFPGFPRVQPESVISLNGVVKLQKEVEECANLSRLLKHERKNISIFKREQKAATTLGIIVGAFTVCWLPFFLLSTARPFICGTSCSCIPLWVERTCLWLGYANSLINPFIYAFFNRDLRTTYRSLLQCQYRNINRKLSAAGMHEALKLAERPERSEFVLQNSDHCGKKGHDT

Molecular target: 5-hydroxytryptamine receptor 7 (Rattus norvegicus, UniProt P32305)

Ki: 4.7 nM
SMILES: Clc1cccc(Cl)c1N=C1NCCN1 [2-(2,6-dichloroanilino)-2-imidazoline]
